This note sets out measurements from US10048272B2, “High-affinity small molecule formylpeptide receptor ligands from screening of combinatorial mixture-based libraries” (STC.UNM, priority 2013, dated 2018).

Chains of the proteins cited; added tags and fusions are not shown.
UniProt P21462, whole entry: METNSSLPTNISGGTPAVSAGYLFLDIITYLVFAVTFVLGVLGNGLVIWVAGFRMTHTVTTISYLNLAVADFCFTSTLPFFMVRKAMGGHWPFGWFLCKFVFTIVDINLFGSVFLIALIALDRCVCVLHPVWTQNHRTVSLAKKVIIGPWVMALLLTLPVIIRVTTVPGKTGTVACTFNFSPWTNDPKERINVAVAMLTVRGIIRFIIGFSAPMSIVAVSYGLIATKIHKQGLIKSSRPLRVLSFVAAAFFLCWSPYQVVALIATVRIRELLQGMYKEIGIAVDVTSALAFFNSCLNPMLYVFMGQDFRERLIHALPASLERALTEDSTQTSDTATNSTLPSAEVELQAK
UniProt P25090, whole entry: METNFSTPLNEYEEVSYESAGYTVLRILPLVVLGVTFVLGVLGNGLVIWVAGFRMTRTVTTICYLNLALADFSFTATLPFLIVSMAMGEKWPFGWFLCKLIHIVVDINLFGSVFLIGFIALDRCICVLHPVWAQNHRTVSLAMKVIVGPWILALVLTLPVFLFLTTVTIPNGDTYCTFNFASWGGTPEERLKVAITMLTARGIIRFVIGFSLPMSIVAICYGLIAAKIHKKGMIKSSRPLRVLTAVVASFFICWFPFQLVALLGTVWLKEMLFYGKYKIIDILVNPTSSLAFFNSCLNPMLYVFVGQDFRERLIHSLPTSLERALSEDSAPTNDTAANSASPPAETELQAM

The structures appear in SMILES notation.

The target of one test is FPR1 (Homo sapiens, UniProt P21462). The test can be described thus: Duplex flow cytometry receptor binding assay (WPep-FITC fluorescent ligand competition), U937/FPR1 cells. As to conditions: for Ki: read-out: Ki, binding to FPR1 (ligand competition), WPep-FITC displacement, U937/FPR1 cells.
In test [1] the target is T1, FPR2 (Homo sapiens, UniProt P25090). Kind of test: Intracellular calcium mobilization assay, FPR2 cells (agonist and antagonist determinations).
Test [2] addresses T1, FPR2. The test can be described thus: Duplex flow cytometry receptor binding assay (WPep-FITC fluorescent ligand competition), RBL/FPR2 cells. As to conditions: for FPR2 selectivity: FPR2 over FPR1; for Ki: read-out: Ki, binding to FPR2 (ligand competition), WPep-FITC displacement, RBL/FPR2 cells.
Where [3] appears, read: second compound of the printed pair relative to the first (1754-43 to 1754-49).

Consider `CCC[C@H]1CNC(=O)C(=O)N1C[C@@H]1CCCN1C[C@@H](Cc1ccc2ccccc2c1)N1C[C@@H](Cc2ccc(O)cc2)N(CC2CCCCC2)C(=O)C1=O`, for which the “Receptor selectivity, FPR1 versus FPR2, in ligand competition binding (in words)” value on FPR1 was “selective for FPR2”. Moreover, the Ki at FPR1 amounted to 2320 nM; at FPR2 [2], 33 nM. Moreover, the “Decrease of activity for FPR1 (potency difference, pKi)” value at FPR1 (setting [3]) was found to be 1.41 log units. The “Response efficacy (fitted Top), Ca2+ response in FPR2 cells” value at FPR2 [1] (maximum response relative to control peptide Wpep (WKYMVm)) was found to be 67%. The FPR2 selectivity came out at 70 nM at FPR2 [2] (as printed in b133 ('nM Ki')) and 70 at FPR2 [2] (no unit). Further, the “Increase of activity for FPR2 (potency difference, pKi)” value on FPR2 [2] (setting [3]) was “more than 2.48 log units”.

Take `CCC[C@H]1CNC(=O)C(=O)N1C[C@@H]1CCCN1C[C@@H](CCC)N1C[C@@H](Cc2ccc(O)cc2)N(CC2CCC(C)CC2)C(=O)C1=O` (stereo partly drawn): the Ki on FPR1 is > 10000 nM.

As to `CCC[C@H](CN1CCC[C@H]1CN1C(=O)C(=O)NC[C@@H]1C(C)C)N1C[C@@H](Cc2ccc(O)cc2)N(CCc2ccc(-c3ccccc3)cc2)C(=O)C1=O`, the Ki at FPR1 and on FPR2 [2] was < 100 nM each time. For the same molecule, the “Functional activity in FPR2-mediated intracellular Ca2+ response (agonist/antagonist)” value on FPR2 [1] (result in words) is “antagonist”.

As to `CCC[C@H]1CNC(=O)C(=O)N1C[C@@H]1CCCN1C[C@@H](CCC)N1C[C@@H](Cc2ccc(O)cc2)N(CC2CCCCC2)C(=O)C1=O`, on FPR1, the “Receptor selectivity, FPR1 versus FPR2, in ligand competition binding (in words)” value is given as “selective for FPR1” and the Ki was determined as 90 nM. In addition, the Ki on FPR2 [2] was > 10000 nM.
